Experimental data: US12409192B2, “Traditional Chinese medicine composition and use thereof” (JIANGSU KANION PHARMACEUTICAL CO., LTD, priority 2021, dated 2025)
Where a name gives a salt, the structure may show the parent alone.

Legend:
[1] = test system: xylene-induced ear swelling in mice; assay: Xylene-induced ear swelling in mice; format: in vivo, KM mice; details: oral once daily 5 days, composition 4.83 g crude drugs/kg, aspirin 0.20 g/kg, X ± SD, n = 10
Experimental: Male KM rats, weighing 180-220 g were fed adaptively for 4 days, with the environmental temperature maintained at 20-25° C. […] Mice in each group were orally gavaged once daily for 5 consecutive days. One hour after the final administration, 0.03 ml of xylene was applied to both sides of the right ear of each mouse, while the left ear served as a control. One hour later, the mice were euthanized by cervical dislocation, and 8 mm ear punches were taken from the same location on both ears of each mouse. The ear punches were weighed precisely, and the difference in weight between the right and left ears was calculated as the degree of swelling.

[2] = test system: ammonia-induced cough in mice; assay: Ammonia solution-induced cough in mice; details: oral once daily 5 days, composition 4.83 g crude drug/kg, promethazine hydrochloride 1.79 mg/kg, X ± SD, n = 10
[3] = verification study, batches P-V

| Compound | Degree of swelling ([1]; right minus left ear punch weight, 1 h after xylene) [g] | Degree of ear swelling [1, 3] [g] | Cough latency period [2] [s] | Cough latency period [2, 3] [s] |
| --- | --- | --- | --- | --- |
| CC(=O)Oc1ccccc1C(=O)O [Aspirin, aspirin] | 0.0076 ± 0.0042 | 0.0071 ± 0.0038 | – | – |
| CC(CN1c2ccccc2Sc2ccccc21)N(C)C (stereo not shown) [Promethazine hydrochloride, promethazine hydrochloride] | – | – | 50.37 ± 8.88 | 49.82 ± 8.51 |
